## scFv variants of Ab-91 (heavy chain) against a SARS-CoV-2 spike peptide

The measurements come from Engelhart et al. 2022 (doi:10.1038/s41597-022-01779-4) through the FLAb antibody collection.

The target is the same throughout: PDVDLGDISGINAS, from the HR2 region of SARS-CoV-2 spike.

The variants keep the light chain, the linker and the frameworks of Ab-91 (scFv order VL, a 15-residue (Gly4Ser)3 linker, VH).
VL: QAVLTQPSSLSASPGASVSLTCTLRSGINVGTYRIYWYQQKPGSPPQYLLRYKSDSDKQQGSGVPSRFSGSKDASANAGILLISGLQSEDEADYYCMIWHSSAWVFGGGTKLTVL
VH: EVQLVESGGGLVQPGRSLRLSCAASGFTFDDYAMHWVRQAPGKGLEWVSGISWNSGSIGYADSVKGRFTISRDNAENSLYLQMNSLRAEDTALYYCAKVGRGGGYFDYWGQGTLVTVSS

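The parent was found by panning a naive human phage display library on the peptide. The library (AAYL51) carries one to three amino acid substitutions per variant, with no insertions or deletions. The assay is AlphaSeq: two haploid yeast populations carry antibody and antigen on their surface. Mating (16 h, 30 °C) was followed by selection of diploids and sequencing of their barcodes. The ratio of observed to expected reads was calibrated, replicate by replicate, on BCL2-family standards whose Kd was known from biolayer interferometry. The assay was run in three technical replicates.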

Each variant is given by its three heavy chain CDRs, as the data file delimits them; those of the parent are GFTFDDYAMH, GISWNSGSIGYADSVK, VGRGGGYFDY.
All variants listed here change W53 of the VH, counted from its first residue.
Each Kd is an estimate from the mating assay, the geometric mean of the replicates in which the pair was seen; lower is stronger.
"nd" means that the variant was in the library but no mating with the target was seen in any replicate; the authors take this as a sign of poor binding, and no number exists.
Background: pairings of library AAYL51 with three empty control strains gave a value in 21% of cases (median 34 µM, 5th percentile 1.8 µM). Values in that range, when seen in few replicates, are hard to tell from nonspecific mating.

For GFTFDDYAVH / GISVNSGSIGYADSVK / GGRGGGYFDY, the assay gave nd (0 of 3 replicates). For GFTFDDYAMH / GISQCSGSIGYAQSVK / VGRGGGYFDY, the assay gave 15 µM (3 of 3 replicates). Variant GFTFDDYAMH / GISCHSGSIGQADSVK / VGRGGGYFDY showed 8.5 µM (3 of 3 replicates). Variant GFTFDDYAMH / GISYNSLSIGYADSVK / VGYGGGYFDY showed 220 nM (3 of 3 replicates). For GFTFDDYAMH / GISTNSGSIGYADSDK / VGRGGGYFDY, the assay gave 32 µM (1 of 3 replicates). Variant GFTFDDYAMH / GISANSGAIGYADSVK / VGRGSGYFDY showed nd (0 of 3 replicates). For GFTFDDYAMH / GISQNSGSIFYADSVK / VGRGGGYFDY, the assay gave 180 µM (2 of 3 replicates).

With LFTFDDYAMH / GISRNSGSIGYAKSVK / VGRGGGYFDY the result was nd (0 of 3 replicates). Variant GFTFDDYAMH / GISANSGSIGYSQSVK / VGRGGGYFDY gave 850 nM (3 of 3 replicates). Variant GFTFDDYEMH / GISNNSGSIGYADSPK / VGRGGGYFDY showed 120 µM (1 of 3 replicates). Variant GFTFDDYAMH / GISQNSGSIGYAWSVK / VGRGGGYFDY gave 25 µM (1 of 3 replicates). Variant GFTFDDYAMH / GISSNSGLIGYADSVK / VGRGGGYFPY gave 17 µM (2 of 3 replicates). For GFTFDDYAMH / GLSENSGSIGYADSVK / VGQGGGYFDY, the assay gave 340 nM (1 of 3 replicates). Variant GFTFDDYAMH / GISYNVGDIGYADSVK / VGRGGGYFDY showed 65 µM (2 of 3 replicates).

With GFTFDMYAMH / GISYNSYSIGYADSVK / VGRGGGYFDY the result was 23 nM (3 of 3 replicates). With GFWFDDYAMH / GISQNSGSIGYADSVK / VCRGGGYFDY the result was 740 nM (3 of 3 replicates). For GFTFDWYAMH / GISQNSGSIGYQDSVK / VGRGGGYFDY, the assay gave 16 nM (3 of 3 replicates). Variant GFTFQDYAMH / GISVNSGSIGYADSVK / VGRDGGYFDY showed 12 µM (1 of 3 replicates). Variant GFTFDDYEMH / MISANSGSIGYADSVK / VGRGGGYFDY gave nd (0 of 3 replicates). For GFTFDDYAYH / GISNNSGSIGYADSDK / VGRGGGYFDY, the assay gave nd (0 of 3 replicates). Variant GFTFADYAMH / GISGNSGSIGYADSVK / VGRGGGYFDF showed 9.0 nM (3 of 3 replicates).

For GFTFDDYAMH / GITINSGSIGYADSVK / VGRQGGYFDY, the assay gave nd (0 of 3 replicates). For GFTFDSYAMH / GISINSGSIGYADSVK / DGRGGGYFDY, the assay gave nd (0 of 3 replicates). Variant GFTFDDYAMH / GISVNSGSIGYADSSK / VGRGGGYFDY showed 130 µM (2 of 3 replicates). Variant GFTFDDYAMH / GISRNSGSIGYAHSVK / VGRGGGRFDY showed 850 µM (1 of 3 replicates). For GFDFDDYAMH / GISSNSGSIYYADSVK / VGRGGGYFDY, the assay gave 55 µM (2 of 3 replicates). Variant GFTFDDYAMH / GISRESGSIGYADSVK / VGRKGGYFDY gave nd (0 of 3 replicates). Variant GFTFDDRACH / GISGNSGSIGYADSVK / VGRGGGYFDY gave nd (0 of 3 replicates).

Variant GFTFDDYAMH / KISFNSGSIGYADSVK / RGRGGGYFDY showed 97 µM (2 of 3 replicates). Variant GFTFDDYAMH / GISRNSGSIGYADSVK / VGRGNGYADY gave 5.3 µM (1 of 3 replicates). For GFTFDDYAMH / GISANSGSISYADSVK / TGRGGGYFDY, the assay gave nd (0 of 3 replicates). For GFCFDDYAMH / GISYNSGSIGYADSVK / VGRGGGYFDY, the assay gave 6.8 nM (3 of 3 replicates). Variant GFMFDDYAMH / CISMNSGSIGYADSVK / VGRGGGYFDY showed nd (0 of 3 replicates). With GFTFDDYAMH / GWSCNSGRIGYADSVK / VGRGGGYFDY the result was nd (0 of 3 replicates). For GFTFDDYAMH / GISSNSGSIWYADSVK / VGRGGGYFDY, the assay gave 600 nM (1 of 3 replicates).

With GFTFDDYAMH / GISGNSGSIWYADSVK / VGIGGGYFDY the result was nd (0 of 3 replicates). With GFTFDDYAMH / GISVNSGSIGYADSVI / VGRGGGYFRY the result was 110 nM (3 of 3 replicates). For GRTFNDYAMH / GISTNSGSIGYADSVK / VGRGGGYFDY, the assay gave 88 µM (2 of 3 replicates).

The first 2 entries again:

CDR-H1,CDR-H2,CDR-H3,Kd,replicates with signal
GFTFDDYAVH,GISVNSGSIGYADSVK,GGRGGGYFDY,nd,0/3
GFTFDDYAMH,GISQCSGSIGYAQSVK,VGRGGGYFDY,15 µM,3/3